Data as given in patent publication US12473298B2, “Amide compounds, preparation method therefor, and use thereof in the medical field” (Shanghai Synergy Pharmaceutical Sciences Co., Ltd., priority 2019, dated 2025).
pIC50: −log10 of the molar value. Structures can show the parent of a compound that is named as a salt. Where two headings read alike, the source gives them in different places.

Sequences of proteins named here, by UniProt entry; tags and fusion partners are left off.
UniProt Q15910, whole entry A677G: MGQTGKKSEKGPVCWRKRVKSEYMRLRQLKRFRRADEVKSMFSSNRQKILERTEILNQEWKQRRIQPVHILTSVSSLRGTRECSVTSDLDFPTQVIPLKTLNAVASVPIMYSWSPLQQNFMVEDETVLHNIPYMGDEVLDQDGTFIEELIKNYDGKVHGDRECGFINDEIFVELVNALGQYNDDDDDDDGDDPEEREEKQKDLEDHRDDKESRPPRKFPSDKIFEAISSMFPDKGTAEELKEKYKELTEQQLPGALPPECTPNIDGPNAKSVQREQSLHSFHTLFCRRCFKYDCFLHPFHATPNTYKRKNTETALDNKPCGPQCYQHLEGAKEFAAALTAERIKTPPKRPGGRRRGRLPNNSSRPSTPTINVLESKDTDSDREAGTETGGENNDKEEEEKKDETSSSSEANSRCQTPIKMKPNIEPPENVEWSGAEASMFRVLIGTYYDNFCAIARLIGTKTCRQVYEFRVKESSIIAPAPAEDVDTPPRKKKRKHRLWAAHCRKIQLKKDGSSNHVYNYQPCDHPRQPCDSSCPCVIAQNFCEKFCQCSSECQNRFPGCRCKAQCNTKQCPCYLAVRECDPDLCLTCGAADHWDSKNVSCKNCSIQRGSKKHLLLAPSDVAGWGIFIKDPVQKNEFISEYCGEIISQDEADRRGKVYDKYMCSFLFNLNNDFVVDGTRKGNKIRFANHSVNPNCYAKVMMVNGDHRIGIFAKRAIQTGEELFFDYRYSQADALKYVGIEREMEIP
UniProt Q15910, whole entry Y641F: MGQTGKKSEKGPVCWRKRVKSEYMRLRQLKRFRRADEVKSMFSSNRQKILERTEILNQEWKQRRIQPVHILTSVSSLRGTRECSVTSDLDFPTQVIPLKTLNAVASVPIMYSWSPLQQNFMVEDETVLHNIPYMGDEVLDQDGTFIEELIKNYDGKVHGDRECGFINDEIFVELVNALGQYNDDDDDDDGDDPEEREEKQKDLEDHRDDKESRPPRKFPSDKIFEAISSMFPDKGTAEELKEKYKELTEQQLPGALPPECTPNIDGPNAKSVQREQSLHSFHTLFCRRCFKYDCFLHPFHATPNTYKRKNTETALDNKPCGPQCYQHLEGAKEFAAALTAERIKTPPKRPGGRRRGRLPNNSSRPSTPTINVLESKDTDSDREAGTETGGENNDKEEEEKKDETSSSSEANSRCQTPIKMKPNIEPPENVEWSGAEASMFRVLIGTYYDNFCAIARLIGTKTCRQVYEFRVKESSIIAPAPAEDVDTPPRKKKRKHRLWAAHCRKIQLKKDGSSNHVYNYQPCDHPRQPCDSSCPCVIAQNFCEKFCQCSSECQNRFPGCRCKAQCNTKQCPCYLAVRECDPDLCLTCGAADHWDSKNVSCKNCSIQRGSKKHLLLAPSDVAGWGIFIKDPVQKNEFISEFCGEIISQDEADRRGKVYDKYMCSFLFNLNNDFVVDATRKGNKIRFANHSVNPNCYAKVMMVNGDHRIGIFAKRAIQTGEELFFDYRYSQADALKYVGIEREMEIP
UniProt Q15910, whole entry: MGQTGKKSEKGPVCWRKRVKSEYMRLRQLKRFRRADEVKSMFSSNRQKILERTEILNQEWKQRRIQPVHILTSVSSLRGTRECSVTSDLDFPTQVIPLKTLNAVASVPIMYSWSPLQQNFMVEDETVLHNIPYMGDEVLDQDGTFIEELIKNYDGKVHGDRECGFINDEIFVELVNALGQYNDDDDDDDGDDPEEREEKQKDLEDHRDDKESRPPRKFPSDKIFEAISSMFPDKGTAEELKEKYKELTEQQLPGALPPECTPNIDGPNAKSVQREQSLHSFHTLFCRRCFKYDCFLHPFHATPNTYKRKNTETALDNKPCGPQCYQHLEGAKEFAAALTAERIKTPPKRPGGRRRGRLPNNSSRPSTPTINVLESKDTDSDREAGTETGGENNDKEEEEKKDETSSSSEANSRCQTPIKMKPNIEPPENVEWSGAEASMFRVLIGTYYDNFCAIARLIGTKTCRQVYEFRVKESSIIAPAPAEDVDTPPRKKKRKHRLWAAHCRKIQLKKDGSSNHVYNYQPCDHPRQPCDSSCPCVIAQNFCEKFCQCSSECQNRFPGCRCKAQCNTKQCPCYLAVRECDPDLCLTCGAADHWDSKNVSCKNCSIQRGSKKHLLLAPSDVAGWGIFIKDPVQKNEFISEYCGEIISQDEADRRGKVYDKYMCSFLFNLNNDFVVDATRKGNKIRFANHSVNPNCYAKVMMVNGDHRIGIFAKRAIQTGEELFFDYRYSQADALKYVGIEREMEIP
UniProt Q15910, whole entry Y641N: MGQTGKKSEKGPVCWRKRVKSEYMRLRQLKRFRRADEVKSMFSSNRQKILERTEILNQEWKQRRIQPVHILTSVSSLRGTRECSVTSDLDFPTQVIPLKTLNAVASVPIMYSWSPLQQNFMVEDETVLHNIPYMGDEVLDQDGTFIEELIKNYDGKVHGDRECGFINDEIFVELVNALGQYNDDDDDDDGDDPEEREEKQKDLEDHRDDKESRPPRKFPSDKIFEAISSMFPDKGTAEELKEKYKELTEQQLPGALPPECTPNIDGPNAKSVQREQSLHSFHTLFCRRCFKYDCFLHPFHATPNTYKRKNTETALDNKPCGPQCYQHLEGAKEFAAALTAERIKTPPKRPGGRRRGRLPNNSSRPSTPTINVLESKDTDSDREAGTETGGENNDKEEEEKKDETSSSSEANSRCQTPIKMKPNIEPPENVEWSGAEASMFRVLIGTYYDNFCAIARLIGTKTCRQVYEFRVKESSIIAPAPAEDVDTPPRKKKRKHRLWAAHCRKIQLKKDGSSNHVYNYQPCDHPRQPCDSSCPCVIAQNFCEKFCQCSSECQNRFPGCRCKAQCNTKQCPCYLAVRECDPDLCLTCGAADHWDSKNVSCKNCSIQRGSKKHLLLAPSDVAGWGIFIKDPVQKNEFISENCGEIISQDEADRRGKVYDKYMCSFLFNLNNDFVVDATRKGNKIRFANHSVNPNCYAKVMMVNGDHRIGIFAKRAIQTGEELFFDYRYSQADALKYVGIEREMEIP

Legend:
[1] = system: human diffuse large B-cell lymphoma cells (WSU-DLCL2 cell); assay: Pharmacodynamic experiment, WSU-DLCL2 transplanted tumor model in mice; format: in vivo, mice (CB17/SCID); details: Mus musculus, WSUDLCL2, po, 504 h, read-out: inhibited tumor growth
Description: The effect of the inventive compounds on tumor growth was discussed. A certain amount of compound was weighted and dissolved in 0.1% Tween under vortex and ultrasound, and 0.5% carboxymethyl cellulose sodium (CMC-NA) solution was added to form a uniform solution. […] Each mouse was inoculated with 1*10^7 cells with a volume of 100 μL. […] [table]

Mutant type EZH2(A677G) = Mutant type EZH2(A677G) (Homo sapiens (Human), UniProt Q15910, A677G); assay: AlphaLISA, mutant type PRC2 complex EZH2(A677G); format: biochemical; details: read-out: Mutant type EZH2(A677G) IC59 Nanomoles per Liter
Mutant type EZH2(Y641F) = Mutant type EZH2(Y641F) (Homo sapiens (Human), UniProt Q15910, Y641F); assay: AlphaLISA, mutant type PRC2 complex EZH2(Y641F); format: biochemical
wild-type EZH2 = wild-type EZH2 (Homo sapiens (Human), UniProt Q15910); assay: radiometric assay, activity to wild-type EZH2 of PRC2
Mutant type EZH2(Y641N) = Mutant type EZH2(Y641N) (Homo sapiens (Human), UniProt Q15910, Y641N); assay: AlphaLISA, mutant type PRC2 complex EZH2(Y641N); format: biochemical
[2] = system: human diffuse large B-cell lymphoma cells (Karpas 422 cell); assay: Karpas 422 cell proliferation, Calcein AM staining; format: cell-based; details: Homo sapiens, KARPAS-422, read-out: Karpas422 Proliferation IC50 Nanomoles per Liter (nM), data of 14th day
[3] = system: human diffuse large cell lymphoma B lymphocytes (Pfeiffer cell); assay: Pfeiffer cell proliferation, Calcein AM staining; format: cell-based; details: Homo sapiens, Pfeiffer
[4] = read-out: Mutant type EZH2(Y641F) IC50 Nanomoles per Liter
[5] = read-out: Wild-type EZH2 IC50 Nanomoles per Liter
[6] = read-out: Mutant type EZH2(Y641N) IC50 Nanomoles per Liter
[7] = read-out: Pfeiffer Proliferation IC50 Nanomoles per Liter (nM), data of 14th day

## CCN(c1cc(-c2ccc3c(c2)NC(=O)C32CCOCC2)cc(C(=O)NCc2c(OC)cc(C)[nH]c2=O)c1C)C1CCNCC1 [Example 3, 3-(ethyl(piperidin-4-yl)amino)-N-((4-methoxy-6-methyl-2-oxo-1,2-dihydropyridin-3-yl)methyl)-2-methyl-5-(2-oxo-2′,3′,5′,6′-tetrahydrospiro[dihydroindole-3,4′-pyran]-6-yl)benzamide]
[1]
  inhibition in vivo at 150 mg/kg: 83%

## CCN(c1cc(-c2cc3c(cc2F)C2(CCOCC2)CC3)cc(C(=O)NCc2c(OC)cc(C)[nH]c2=O)c1C)C1CCOCC1 [Example 17, 3-(ethyl(tetrahydro-2H-pyran-4-yl)amino)-5-(6-fluoro-2,2′,3,3′,5′,6′-hexahydrospiro[indene-1,4′-pyran]-5-yl)-N-((4-methoxy-6-methyl-2-carbonyl-1,2-dihydropyridin-3-yl)methyl)-2-methylbenzamide]
Mutant type EZH2(A677G)
  pIC50: 9.34
Mutant type EZH2(Y641F); [4]
  pIC50: 9.12

## CCN(c1cc(-c2cc3c(cc2F)C2(CCOCC2)CC3)cc(C(=O)NCc2c(C)cc(C)[nH]c2=O)c1C)C1CCOCC1 [Example 23]
Mutant type EZH2(Y641F); [4]
  pIC50: 9.12

## CCN(c1cc(-c2ccc3c(c2)N(CC(F)(F)C(F)(F)F)C(=O)C32CCOCC2)cc(C(=O)NCc2c(C)cc(C)[nH]c2=O)c1C)C1CCOCC1 [Example 39, N-((4,6-dimethyl-2-oxo-1,2-dihydropyridin-3-yl)methyl)-3-(ethyl(tetrahydro-2H-pyran-4-yl)amino)-2-methyl-5-(2-oxo-1-(2,2,3,3,3-pentafluoropropyl)-2′,3′,5′,6′-tetrahydrospiro[dihydroindole-3,4′-pyran]-6-yl)benzamide]
Mutant type EZH2(A677G)
  pIC50: 9.47
Mutant type EZH2(Y641F); [4]
  pIC50: 9.37
wild-type EZH2; [5]
  pIC50: 9.13
Mutant type EZH2(Y641N); [6]
  pIC50: 9.68

## CCN(c1cc(-c2ccc3c(c2)CCC32CCOCC2)cc(C(=O)NCc2c(OC)cc(C)[nH]c2=O)c1C)C1CCOC(C)(C)C1 (stereo not shown) [Example 43, 3-((2,2-dimethyltetrahydro-2H-pyran-4-yl)(ethyl)amino)-5-(2,2′,3,3′,5′,6′-hexahydrospiro[indene-1,4-pyran]-5-yl)-N-((4-methoxy-6-methyl-2-oxo-1,2-dihydropyridin-3-yl)methyl)-2-methylbenzamide]
Mutant type EZH2(A677G)
  pIC50: 9.64
wild-type EZH2; [5]
  pIC50: 9.21
Mutant type EZH2(Y641N); [6]
  pIC50: 10.10

## CCN(c1cc(-c2ccc3c(c2)N(C)C(=O)C32CCN(CC(F)(F)C(F)(F)F)CC2)cc(C(=O)NCc2c(C)cc(C)[nH]c2=O)c1C)C1CCOCC1 [Example 44, N-((4,6-dimethyl-2-oxo-1,2-dihydropyridin-3-yl)methyl)-3-(ethyl(tetrahydro-2H-pyran-4-yl)amino)-2-methyl-5-(1-methyl-2-oxo-1′-(2,2,3,3,3-pentafluoroethyl)spiro[dihydroindole-3,4′-piperidine]-6-yl)benzamide]
[2]
  IC50: 2.14 nM
Mutant type EZH2(Y641F)
  pIC50: 9.12
wild-type EZH2
  pIC50: 9.04
Mutant type EZH2(Y641N)
  pIC50: 9.52
[3]; [7]
  IC50: 1.75 nM

## CCN(c1cc(-c2ccc3c(c2)N(C(C)C)CC32CCOCC2)c(Cl)c(C(=O)NCc2c(OC)cc(C)[nH]c2=O)c1C)C1CCOCC1 [Example 49, 2-chloro-5-(ethyl(tetrahydro-2H-pyran-4-yl)amino)-3-(1-isopropyl-2,3,5,6-tetrahydrospiro[dihydroindole-3,4-pyran]-6-yl)-N-((4-methoxy-6-methyl-2-oxo-1,2-dihydropyridin-3-yl)methyl)-6-methylbenzamide]
[2]
  IC50: 0.93 nM
Mutant type EZH2(Y641F)
  pIC50: 9.41
wild-type EZH2
  pIC50: 9.21
Mutant type EZH2(Y641N)
  pIC50: 9.92
[3]; [7]
  IC50: 0.15 nM

## CCN(c1cc(-c2ccc3c(c2)C2(CC3)CC(C)N(CC)C(C)C2)cc(C(=O)NCc2c(OC)cc(C)[nH]c2=O)c1C)C1CCOCC1 (stereo not shown) [Example 50, 3-(ethyl(tetrahydro-2H-pyran-4-yl)amino)-5-(1′-ethyl-2′,6′-dimethyl-2,3-dihydrospiro[indene-1,4′-piperidine]-6-yl)-N-((4-methoxy-6-methyl-2-oxo-1,2-dihydropyridin-3-yl)methyl)-2-methylbenzamide formate]
Mutant type EZH2(A677G)
  pIC50: 9.30
Mutant type EZH2(Y641F); [4]
  pIC50: 9.17
wild-type EZH2; [5]
  pIC50: 9.12
Mutant type EZH2(Y641N); [6]
  pIC50: 9.49
[3]; read-out: Pfeiffer Proliferation IC50 Nanomoles per Liter (nM)
  IC50: 0.75 nM

## CCN(c1cc(-c2ccc3c(c2)N(C)C(=O)C32CCN(C(C)C)CC2)c(F)c(C(=O)NCc2c(C)cc(C)[nH]c2=O)c1C)C1CCOCC1 [Example 61, N-((4,6-dimethyl-2-oxo-1,2-dihydropyridin-3-yl)methyl)-3-(ethyl(tetrahydro-2H-pyran-4-yl)amino)-6-fluoro-5-(1′-isopropyl-1-methyl-2-oxospiro[dihydroindole-3,4′-piperidine]-6-yl)-2-methylbenzamide]
[2]
  IC50: 0.76 nM
Mutant type EZH2(Y641N)
  pIC50: 9.66

## CCN(c1cc(-c2ccc3c(c2)NC(=O)C32CCOCC2)cc(C(=O)NCc2c(C)cc(C)[nH]c2=O)c1C)C1CCOCC1 [Example 66, N-((4,6-dimethyl-2-oxo-1,2-dihydropyridin-3-yl)methyl)-3-(ethyl(tetrahydro-2H-pyran-4-yl)amino)-2-methyl-5-(2-oxo-2′,3′,5′,6′-tetrahydrospiro[dihydroindole-3,4′-pyran]-6-yl)benzamide]
[1]
  inhibition in vivo at 150 mg/kg: 81%

## CCN(c1cc(-c2ccc3c(c2)C2(CCOCC2)C(=O)N3)cc(C(=O)NCc2c(C)cc(C)[nH]c2=O)c1C)C1CCOCC1 [Example 77, N-((4,6-dimethyl-2-oxo-1,2-dihydropyridin-3-yl)methyl)-3-(ethyl(tetrahydro-2H-pyran-4-yl)amino)-2-methyl-5-(2-oxo-2′,3′,5′,6′-tetrahydrospiro[dihydroindole-3,4′-pyran]-5-yl)benzamide]
Mutant type EZH2(Y641F); [4]
  pIC50: 9.12

## CCN(c1cc(-c2ccc3c(c2)NC(=O)C32CCN(C(=O)OC(C)(C)C)CC2)cc(C(=O)NCc2c(C)cc(C)[nH]c2=O)c1C)C1CCOCC1 [Example 79, Tert-butyl 6-(3-(((4,6-dimethyl-2-oxo-1,2-dihydropyridin-3-yl)methyl)carbamoyl)-5-(ethyl(tetrahydro-2H-pyran-4-yl)amino)-4-methylphenyl)-2-oxospiro[dihydroindole-3,4′-piperidine]-1′-carboxylate]
Mutant type EZH2(A677G)
  pIC50: 9.12

## CCN(c1cc(-c2ccc3c(c2)NC(=O)C32CCN(S(C)(=O)=O)CC2)cc(C(=O)NCc2c(C)cc(C)[nH]c2=O)c1C)C1CCOCC1 [Example 87, N-((4,6-dimethyl-2-oxo-1,2-dihydropyridin-3-yl)methyl)-3-(ethyl(tetrahydro-2H-pyran-4-yl)amino)-2-methyl-5-(1′-methylsulfonyl-2-oxospiro[dihydroindole-3,4′-piperidine]-6-yl)benzamide]
wild-type EZH2; [5]
  pIC50: 9.34

## CCN(c1cc(-c2ccc3c(c2)NC(=O)C32CCSCC2)cc(C(=O)NCc2c(C)cc(C)[nH]c2=O)c1C)C1CCOCC1 [Example 89, N-((4,6-dimethyl-2-oxo-1,2-dihydropyridin-3-yl)methyl)-3-(ethyl(tetrahydro-2H-pyran-4-yl)amino)-2-methyl-5-(2-oxo-2′,3′,5′,6′-tetrahydrospiro[dihydroindole-3,4′-thiapyran]-6-yl)benzamide]
Mutant type EZH2(A677G)
  pIC50: 9.34

## CCN(c1cc(-c2ccc3c(c2)NC(=O)C32CCOCC2)cc(C(=O)NCc2c(C)cc(C)[nH]c2=O)c1C)C1CCC(N(C)CCOC)CC1 (stereo not shown) [Example 99, N-((4,6-Dimethyl-2-oxo-1,2-dihydropyridin-3-yl)methyl)-3-(ethyl(4-((2-methoxyethyl)(methyl)amino)cyclohexyl)amino)-2-methyl-5-(2-oxo-2′,3′,5′,6′-tetrahydrospiro[dihydroindole-3,4′-pyran]-6-yl)benzamide]
Mutant type EZH2(Y641N); [6]
  pIC50: 9.34

## CCN(c1cc(-c2ccc3c(c2)NC(=O)C32CCOCC2)cc(C(=O)NCc2c(C)cc(C)[nH]c2=O)c1C)C1CC(C)OC(C)C1 (stereo not shown) [Example 104, N-((4,6-Dimethyl-2-oxo-1,2-dihydropyridin-3-yl)methyl)-3-(ethyl(2,6-dimethyltetrahydro-2H-pyran-4-yl)amino)-2-methyl-5-(2-oxo-2′,3′,5′,6′-tetrahydrospiro[dihydroindole-3,4′-pyran]-6-yl)benzamide]
wild-type EZH2; [5]
  pIC50: 9.34

## CCN(c1cc(-c2ccc3c(c2)CCC32CCOCC2)cc(C(=O)NCc2c(OC)cc(C)[nH]c2=O)c1C)C1CCOCC1 [Example 113, 3-(Ethyl(tetrahydro-2H-pyran-4-yl)amino)-5-(2,2′,3,3′,5′,6′-hexahydrospiro[indene-1,4′-pyran]-5-yl)-N-((4-methoxy-6-methyl-2-oxo-1,2-dihydropyridin-3-yl)methyl)-2-methylbenzamide]
wild-type EZH2; [5]
  pIC50: 9.12

## N-((4,6-dimethyl-2-carbonyl-1,2-dihydropyridin-3-yl)methyl)-3-(ethyl(tetrahydro-2H-pyran-4-yl)amino)-2-methyl-5-(1-neopentyl-2′,3′,5′,6′-tetrahydrospiro[dihydroindole-3,4′-pyran]-6-yl)benzamide [Example 29]
Mutant type EZH2(A677G)
  IC50: 0.61 nM
